Measured values: patent US20090176776A1, “SMALL MOLECULE INHIBITORS OF HIV-1 CAPSID ASSEMBLY” (UNIVERSITY OF ALABAMA AT BIRMINGHAM, priority 2005, published 2009)

Assay: MTS score (Table 1; method not described)
Format: cell-based

Compound: Oc1c(Br)cc(C=NNc2nc3ccccc3s2)c(O)c1Br
- MTS AVG 4 (No Effect) (average of the MTS scores at 10, 30 and 100 μM): 1.333
- MTS 10 μM (score at nominal 10 μM, 4 = No Effect): 1
- MTS 30 μM (score at nominal 30 μM, 4 = No Effect): 2
- MTS 100 μM (score at nominal 100 μM, 4 = No Effect): 1
